Assay: In vivo accumulation of metal ion in normal and tumorous tissue, ICP-MS (Test Example 5)
Design: species or system BALB/c athymic nude mice; concentration of iron ion (ICP-MS): unit not given here
Conditions: 1 mg/kg i.v., after 24 hr
Procedure: In order to evaluate the accumulation of the administered metal ion in tumorous tissue through in vivo animal testing, tumor xenograft animal models were manufactured as follows. Specifically, a lung cancer cell line NCI-H460-luc2 (Califer Life Sciences) was cultured, and 5×10^6 cells were subcutaneously injected into 6- to 8-week-old female BALB/c athymic nude mice (Damul Science), and the mice were bred for about 10 days so as to grow tumorous tissue to a size of 100 mm^3 or more, yielding the tumor xenograft animal models.
Into the established tumor xenograft BALB/c athymic nude mice, each of the metal ion aqueous solutions of Test Example 1, that is, magnesium sucrose, iron sucrose, and iron dextran, was diluted to a concentration of 0.2 mg/ml and then intravenously injected in an amount of 0.1 ml so as to reach a dose of 1 mg/kg. After 24 hr, in order to carry out inductively coupled plasma mass spectrometry (ICP-MS), 1 g of each tissue was ground using a tissue grinder in an ice bath, and 1 ml of the ground solution was dried at −60° C. in a vacuum of 7 μmHg for 24 hr. The dried powder was added with 2 ml of 6N HCl, placed in a sealed glass reactor, and cultured in an incubator at 55° C. After 12 hr or longer, each sample was mixed in a vortex and then centrifuged at 1,000 rpm for 15 min, and the supernatant was dried with nitrogen gas, added with 1 ml of 0.01N HCl, mixed in a vortex, and then centrifuged at 1,000 rpm for 15 min. The supernatant was recovered, and the concentrations of the metal ions in the normal tissue and the tumorous tissue were measured through ICP-MS (Varian 800-MS, Palo Alto, US).

Iron dextran
Fold Increase of iron ion vs saline (Brain): 1.62 | concentration of iron ion (ICP-MS) (Brain): 36.4 ± 3.4 | Fold Increase of iron ion vs saline (Heart): 2.86 | concentration of iron ion (ICP-MS) (Heart): 92.1 ± 5.8 | Fold Increase of iron ion vs saline (Kidney): 1.05 | concentration of iron ion (ICP-MS) (Kidney): 59.8 ± 15.6 | Fold Increase of iron ion vs saline (Liver): 1.55 | concentration of iron ion (ICP-MS) (Liver): 115.5 ± 17.3 | Fold Increase of iron ion vs saline (Muscle): 2.23 | concentration of iron ion (ICP-MS) (Muscle): 65.7 ± 30.4 | Fold Increase of iron ion vs saline (Stomach): 1.95 | concentration of iron ion (ICP-MS) (Stomach): 54.1 ± 12.8 | concentration of iron ion (ICP-MS) (Tumor): 46.8 ± 6.6 | Fold Increase of iron ion vs saline (Tumor, 1 mg/kg): ≥ 3.4 | Fold Increase of iron ion vs saline (Tumor, listed as Fe-Dextran, 1 mg/kg): 3.47

— patent US11752210B2, “Sensitizing composition using electromagnetic waves for thermal therapy of cancers, and cancer therapy using same” (JINIS CO., LTD., priority 2013, dated 2023)
